The values that follow come from ChEMBL document CHEMBL4321820, “Identification and Optimization of Mechanism-Based Fluoroallylamine Inhibitors of Lysyl Oxidase-like 2/3” (J Med Chem, 2019).

Test [1] has as its target T1, Lysyl oxidase homolog 2 (Homo sapiens) (UniProt Q9Y4K0).
T1 sequence (whole entry): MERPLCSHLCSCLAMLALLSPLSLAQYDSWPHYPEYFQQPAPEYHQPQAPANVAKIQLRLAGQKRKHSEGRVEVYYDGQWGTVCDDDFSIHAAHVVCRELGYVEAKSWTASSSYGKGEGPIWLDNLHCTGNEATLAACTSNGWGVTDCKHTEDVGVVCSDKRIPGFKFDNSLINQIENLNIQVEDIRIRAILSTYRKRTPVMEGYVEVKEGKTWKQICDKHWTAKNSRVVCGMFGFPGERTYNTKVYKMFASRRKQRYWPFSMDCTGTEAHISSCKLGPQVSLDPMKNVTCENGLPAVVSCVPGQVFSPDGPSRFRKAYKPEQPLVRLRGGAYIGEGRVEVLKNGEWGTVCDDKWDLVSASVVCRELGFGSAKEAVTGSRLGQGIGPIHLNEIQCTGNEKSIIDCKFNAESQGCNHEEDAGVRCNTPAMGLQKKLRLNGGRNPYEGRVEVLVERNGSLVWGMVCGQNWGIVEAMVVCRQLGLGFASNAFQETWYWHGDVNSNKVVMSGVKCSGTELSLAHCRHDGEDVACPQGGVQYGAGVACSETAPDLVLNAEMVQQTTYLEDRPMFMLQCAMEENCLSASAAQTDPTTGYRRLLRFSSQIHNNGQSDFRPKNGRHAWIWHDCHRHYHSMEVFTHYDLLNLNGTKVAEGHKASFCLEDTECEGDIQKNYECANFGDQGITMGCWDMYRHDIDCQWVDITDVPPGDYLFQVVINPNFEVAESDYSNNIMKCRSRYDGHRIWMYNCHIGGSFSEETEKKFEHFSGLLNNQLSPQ
The test is described as follows: Inhibition of recombinant human C-terminal His-tagged […] (1-774 residues) expressed in mouse myeloma cells at 10XIC50 preincubated with bound enzyme for 30 mins followed by drug wash-out and later incubated with putrescine substrate and measured after 30 mins by Amplex-Red oxidation assay. The format is cell-based.

Test [2] deals with T1, Lysyl oxidase homolog 2 (Homo sapiens). The test is described as follows: Irreversible inhibition of recombinant human C-terminal His-tagged […] (1-774 residues) expressed in mouse myeloma cells assessed as maximal inhibition at 30XIC50 incubated for 60 mins followed by 100-fold dilution prior to addition of putrescine as substrate and measured after 30 mins by jump dilution assay based Amplex-Red oxidation assay relative to control. Put shortly:
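LOXL2 soaked 60 min at 37 °C with inhibitor at 30× IC50. Diluted 50-fold in assay buffer (1.2 M urea, 50 mM borate, pH 8.2), then 1:2 with reaction mix of Amplex Red 120 µM, HRP 1.5 U/mL and putrescine. Read out 30 min after substrate addition (ex 565/em 590, 37 °C). Percent activity followed over time after dilution.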

The source made the active and inactive calls. No cut-off for these calls is given here.

As to `N#CCCN`, the inhibition entry in test [1] and in test [2] was “Active” throughout.
